Test results from patent US10752613B2, “Compounds and their use for reducing uric acid levels” (Acquist LLC, priority 2016, dated 2020).

Amino acid sequences for entries named in this document (tags omitted). A change or cut given only in a name is not applied to a line headed by its entry.
UniProt Q96S37: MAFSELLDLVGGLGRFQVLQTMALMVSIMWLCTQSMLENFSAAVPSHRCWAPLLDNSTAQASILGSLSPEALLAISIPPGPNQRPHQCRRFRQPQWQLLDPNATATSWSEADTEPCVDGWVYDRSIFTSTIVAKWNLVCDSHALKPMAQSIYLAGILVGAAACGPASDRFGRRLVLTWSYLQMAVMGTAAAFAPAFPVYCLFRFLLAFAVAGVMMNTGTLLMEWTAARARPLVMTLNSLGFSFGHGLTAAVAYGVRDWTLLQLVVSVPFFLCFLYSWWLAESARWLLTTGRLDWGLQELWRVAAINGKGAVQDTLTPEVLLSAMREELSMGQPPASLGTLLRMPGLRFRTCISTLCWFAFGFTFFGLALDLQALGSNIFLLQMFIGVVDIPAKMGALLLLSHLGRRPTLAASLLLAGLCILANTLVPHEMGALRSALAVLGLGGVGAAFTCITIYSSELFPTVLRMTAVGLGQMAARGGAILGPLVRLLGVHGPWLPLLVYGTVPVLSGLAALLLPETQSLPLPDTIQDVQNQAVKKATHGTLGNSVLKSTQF

Molecular target: URAT1 (SLC22A12) (Homo sapiens (Human), UniProt Q96S37)
Assay: URAT1 (SLC22A12) cellular uptake assay, 3H-orotate transport in stably transfected URAT-1/CHO cells
Settings: for URAT1 inhibition in words / compared with lesinurad: comparison in words; for IC50: read-out: URAT1 IC50, 3H-orotate uptake, URAT-1/CHO cells, URAT1 assay as described herein

Row | Structure (SMILES) | URAT1 inhibition in words / compared with lesinurad | IC50 [µM]
1 | O=C(Nc1ccc(-c2nn[nH]c2-c2ccccc2)cc1)c1c(O)[nH]c(=O)[nH]c1=O [Formula (Ic), 6-hydroxy-2,4-dioxo-N-(4-(4-phenyl-1H-1,2,3-triazol-5-yl)phenyl)-1,2,3,4-tetrahydropyrimidine-5-carboxamide] | more potent inhibitors of URAT1 than lesinurad | 0.11
2 | O=C(Nc1ccc(-c2c[nH]nn2)c(C(F)(F)F)c1)c1c(O)[nH]c(=O)[nH]c1=O [Formula (Ig), N-(4-(1H-1,2,3-triazol-5-yl)-3-(trifluoromethyl)phenyl)-6-hydroxy-2,4-dioxo-1,2,3,4-tetrahydropyrimidine-5-carboxamide] | – | 2.7
3 | O=C(Nc1ccc(-c2c[nH]nn2)cc1C(F)(F)F)c1c(O)[nH]c(=O)[nH]c1=O [Formula (Ih), N-(4-(1H-1,2,3-triazol-5-yl)-2-(trifluoromethyl)phenyl)-6-hydroxy-2,4-dioxo-1,2,3,4-tetrahydropyrimidine-5-carboxamide] | – | 1.6
4 | O=C(Nc1ccc(-c2cc(O)n[nH]2)cc1)c1c(O)[nH]c(=O)[nH]c1=O [Formula (Ii), 6-hydroxy-N-(4-(3-hydroxy-1H-pyrazol-5-yl)phenyl)-2,4-dioxo-1,2,3,4-tetrahydropyrimidine-5-carboxamide] | potent inhibitors of URAT1 | 9.1
